Biological target: Cyclooxygenase (Rattus norvegicus, UniProt Q63921)
Assay: cell-based
Experimental: The rat basophilic leukemia cell line (RBL-1) was obtained from the American Type Culture Collection (Rockville, Md.).
All tissue culture media were obtained from GIBCO (Grand Island, N.Y.).
RBL-1 cells are grown in suspension culture in Eagle's minimum essential medium supplemented with 12% fetal bovine serum at 37° C. in an incubator supplied with air-5% carbon dioxide. Cells are harvested by centrifugation. They are washed with cold phosphate buffered saline pH 7.4 (PBS; NaCl, 7.1 g; Na2 HPO4, 1.15 g; KH2 PO4, 0.2 g; and KCl, 0.2 g/l). […] The reaction is stopped by chilling the tubes on ice for ten minutes. Cells are separated by centrifugation and the supernatant is stored at -20°.

Amino acid sequences for entries named in this document (tags omitted). Residues count along the entry.
UniProt Q63921, 27-602: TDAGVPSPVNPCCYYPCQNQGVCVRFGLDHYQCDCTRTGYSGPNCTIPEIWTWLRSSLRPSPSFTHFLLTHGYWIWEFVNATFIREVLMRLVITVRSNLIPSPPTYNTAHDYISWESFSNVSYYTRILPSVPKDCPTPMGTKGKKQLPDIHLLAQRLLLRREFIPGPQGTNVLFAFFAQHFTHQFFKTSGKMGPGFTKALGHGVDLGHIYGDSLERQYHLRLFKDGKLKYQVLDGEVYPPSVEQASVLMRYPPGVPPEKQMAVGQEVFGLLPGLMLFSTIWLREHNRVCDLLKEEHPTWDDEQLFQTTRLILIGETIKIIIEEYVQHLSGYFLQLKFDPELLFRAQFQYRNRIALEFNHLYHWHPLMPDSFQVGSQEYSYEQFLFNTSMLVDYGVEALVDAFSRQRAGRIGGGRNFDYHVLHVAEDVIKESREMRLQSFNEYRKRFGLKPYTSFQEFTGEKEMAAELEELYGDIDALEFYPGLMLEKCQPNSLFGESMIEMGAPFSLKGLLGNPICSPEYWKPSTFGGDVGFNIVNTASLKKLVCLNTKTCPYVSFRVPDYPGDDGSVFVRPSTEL

IC50: 510 nM
Compound: FC(F)(F)c1cccc(Nc2ccccc2-c2n[nH]c(S)n2)c1 [Example 4, 5-[2-[(3-trifluoromethylphenyl)amino]phenyl]-2,4-dihydro-3H-1,2,4-triazole-3-thione]
